The values that follow come from patent publication US20130136691A1, “GASTRIN […] PEPTIDE COMPOUNDS” (priority 2008, published 2013).

Protein sequences, listed by entry. Tags and fused reporters are not part of them. Lines headed by an entry give the natural chain unless they say otherwise; changes in a name come on top.
UniProt P32247: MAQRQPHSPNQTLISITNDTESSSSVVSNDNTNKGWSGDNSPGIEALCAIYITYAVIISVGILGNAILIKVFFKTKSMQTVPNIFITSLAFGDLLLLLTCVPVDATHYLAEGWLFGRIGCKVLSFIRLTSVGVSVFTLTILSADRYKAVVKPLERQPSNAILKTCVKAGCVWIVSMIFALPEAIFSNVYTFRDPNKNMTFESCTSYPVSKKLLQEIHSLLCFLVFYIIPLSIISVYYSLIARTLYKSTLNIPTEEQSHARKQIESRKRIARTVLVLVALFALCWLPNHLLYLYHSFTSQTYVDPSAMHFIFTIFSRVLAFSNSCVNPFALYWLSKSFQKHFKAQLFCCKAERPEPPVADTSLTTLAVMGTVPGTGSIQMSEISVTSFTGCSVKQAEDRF

The target of the test is bombesin receptor subtype 3 (BB3-R) (human) (UniProt P32247). The test can be described thus: competition with 125I-universal ligand, receptor autoradiography on human tumour tissue.

By IC50 is commonly meant the concentration needed to halve the response being measured. A higher IC50 goes with lower potency.

“Universal ligand ([DTyr^6, βAla^11, Phe^13, Nle^14]-BBN(6-14)) (peptide)” yielded an IC50 of 1.1 nM.
